## scFv variants of Ab-14 (light chain) against a SARS-CoV-2 spike peptide

Values reported by Engelhart et al. 2022, doi:10.1038/s41597-022-01779-4 (FLAb copy).

The target is the same throughout: PDVDLGDISGINAS, from the HR2 region of SARS-CoV-2 spike.

Each scFv is VH, the linker GGGGSGGGGSGGGGS, VL, as in the parent Ab-14, and differs from it in the CDRs of the light chain only.
VH: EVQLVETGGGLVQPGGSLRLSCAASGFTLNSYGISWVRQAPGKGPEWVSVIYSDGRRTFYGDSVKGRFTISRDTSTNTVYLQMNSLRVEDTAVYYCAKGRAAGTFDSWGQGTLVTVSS
VL: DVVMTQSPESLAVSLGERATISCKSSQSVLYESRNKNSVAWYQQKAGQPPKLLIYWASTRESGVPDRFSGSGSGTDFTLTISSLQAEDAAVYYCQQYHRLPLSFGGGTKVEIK

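Phage display of a naive human antibody library on the peptide gave the parent. In library AAYL50, one, two or three CDR residues were substituted; doubles and triples were drawn at random. AlphaSeq pools MATa yeast showing the antibodies with MATalpha yeast showing the peptide. Pairs that bind mate more often; barcode pairs of the diploids are counted by sequencing. Scores were corrected for input abundance and mapped to Kd with protein pairs of known affinity run in the same pool. There are three technical replicates.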

Substitutions are numbered in sequence along the VL above, starting at 1 (not Kabat). Scale: log10 of Kd in nM, estimated from mating counts; low values are strong binders. Averages over replicates are reported, and they cover detected replicates only. An entry "n.d." has no value in the source: the pair was not observed among the diploids in that replicate. This suggests poor binding but is not conclusive. Background: pairings of library AAYL50 with three empty control strains gave a value in 18% of cases (median 4.19, 5th percentile 2.99). Values in that range, when seen in few replicates, are hard to tell from nonspecific mating.

changes,log10 Kd (nM) by replicate,mean log10 Kd (nM)
N35I K36R,1.87 1.69 1.77,1.77
E32D S38F Q95W,n.d. n.d. n.d.,n.d.
R34P E61S,n.d. n.d. n.d.,n.d.
S58Q L102V S103T,1.33 1.14 1.36,1.28
L30K E32F R60N,n.d. n.d. n.d.,n.d.
Y31C Y97K P101H,n.d. n.d. n.d.,n.d.
L30N R34T P101F,0.61 0.91 0.86,0.79
S28Q Y97F H98K,n.d. 4.32 n.d.,4.32
N37E A57P S58R,n.d. n.d. n.d.,n.d.
W56C L100A L102T,n.d. 3.29 5.21,4.25
S33A W56A H98N,n.d. n.d. n.d.,n.d.
S28A V29W R60G,n.d. n.d. 4.15,4.15
N35L R60V,n.d. n.d. n.d.,n.d.
N37Y W56T E61Y,n.d. 4.64 n.d.,4.64
K24L W56P Y97I,n.d. n.d. n.d.,n.d.
S26H S33A K36E,1.00 1.11 0.94,1.02
S62Y Q95I,n.d. n.d. n.d.,n.d.
S28N K36I W56L,1.73 1.55 1.69,1.66
E32Q S58A Y97L,1.07 1.12 0.94,1.04
L30Q Y31H S33M,n.d. n.d. n.d.,n.d.
S33Q P101M,2.16 2.00 2.23,2.13
E32W S38G R99N,n.d. n.d. n.d.,n.d.
E32S A57W S62H,n.d. n.d. n.d.,n.d.
Y31V E32L E61V,1.17 1.28 1.32,1.26
N35F Y97G P101G,n.d. 3.92 n.d.,3.92
E61W H98F,1.31 1.44 1.57,1.44
Y31R W56H A57I,0.97 1.10 1.04,1.04
K24R A57W Q96F,3.21 5.19 n.d.,4.20
Q27E R99H P101H,n.d. n.d. n.d.,n.d.
S28M Y31T S103K,n.d. n.d. n.d.,n.d.
Y97K R99I L100A,n.d. 3.94 n.d.,3.94
E32Q Q96H H98R,n.d. n.d. n.d.,n.d.
S28D S62M Q96V,n.d. n.d. n.d.,n.d.
Q27L S38T L100V,2.76 2.16 n.d.,2.46
Q27N S38A L100S,2.35 n.d. n.d.,2.35
E32M S38G S62M,n.d. n.d. n.d.,n.d.
R34A L100I L102C,n.d. n.d. 5.30,5.30
S38I A40P P101S,n.d. n.d. n.d.,n.d.
E32T Q95V L100C,n.d. 3.55 5.75,4.65

Excerpt, the final 5 entries:

changes	log10 Kd (nM) by replicate	mean log10 Kd (nM)
Q27N S38A L100S	2.35 n.d. n.d.	2.35
E32M S38G S62M	n.d. n.d. n.d.	n.d.
R34A L100I L102C	n.d. n.d. 5.30	5.30
S38I A40P P101S	n.d. n.d. n.d.	n.d.
E32T Q95V L100C	n.d. 3.55 5.75	4.65